Test: Toxicology of L2-mIgG2a combined with chemotherapy
Conditions: tumor-bearing nude mice; for Food consumption: 5-FU 100 mg/kg or IRT 80 mg/kg once per week, without or with 20 mg/kg L2 3× per week; for Food consumption / ALT / Albumin / BUN / Hemoglobin / Organ weight, Brain / Organ weight, Heart / Organ weight, Kidney / Organ weight, Liver / Organ weight, Lung / Organ weight, Spleen / RBC / Total Protein / WBC: Mean ± SD; for Creatine / Total Bilirubin / ALT / Albumin / BUN / Hemoglobin / Organ weight, Brain / Organ weight, Heart / Organ weight, Kidney / Organ weight, Liver / Organ weight, Lung / Organ weight, Spleen / RBC / Total Protein / WBC: 5-FU or IRT schedule without or with 20 mg/kg L2 3× per week

O=c1[nH]cc(F)c(=O)[nH]1 [Antibody 5-FU, 5-fluorouracil]
Food consumption: 29.7 ± 1.9 g/wk | Creatine: ≦0.2 mg/dL | Total Bilirubin: ≦0.3 mg/dL | ALT: 59.2 ± 62.6 U/L | Albumin: 2.7 ± 0.5 g/dL | BUN: 19.4 ± 1.5 mg/dL | Hemoglobin: 12.4 ± 0.4 g/dL | Organ weight, Brain: 460 ± 23 mg | Organ weight, Heart: 126 ± 5 mg | Organ weight, Kidney: 398 ± 27 mg | Organ weight, Liver: 1412 ± 88 mg | Organ weight, Lung: 168 ± 15 mg | Organ weight, Spleen: 170 ± 37 mg | RBC: 8.6 ± 0.4 M/μL | Total Protein: 6.0 ± 0.6 g/dL | WBC: 9.4 ± 4.4 K/μL

CCc1c2c(nc3ccc(OC(=O)N4CCC(N5CCCCC5)CC4)cc13)-c1cc3c(c(=O)n1C2)COC(=O)[C@]3(O)CC [IRT, irinotecan]
Food consumption: 31.9 ± 2.7 g/wk | Creatine: ≦0.2 mg/dL | Total Bilirubin: ≦0.3 mg/dL | ALT: 48.6 ± 25.7 U/L | Albumin: 3.7 ± 0.4 g/dL | BUN: 20.6 ± 2.7 mg/dL | Hemoglobin: 12.3 ± 1.7 g/dL | Organ weight, Brain: 464 ± 26 mg | Organ weight, Heart: 134 ± 13 mg | Organ weight, Kidney: 354 ± 53 mg | Organ weight, Liver: 1334 ± 226 mg | Organ weight, Lung: 166 ± 31 mg | Organ weight, Spleen: 134 ± 34 mg | RBC: 8.1 ± 1.1 M/μL | Total Protein: 5.8 ± 0.3 g/dL | WBC: 4.0 ± 0.9 K/μL

Reference: US9181340B2, “TEM8 antibodies, conjugates thereof, and their use” (The United States of America, as represented by the …, priority 2011, dated 2015)
